Assay results published in patent US20090131354A1, “miR-126 REGULATED GENES AND PATHWAYS AS TARGETS FOR THERAPEUTIC INTERVENTION” (priority 2007, published 2009).

Tested on: A549 cells
Assay: mRNA array gene expression analysis after transfection
Format: cell-based, human
Settings: A549, 30 nM

hsa-miR-126
Δ log2 RDX mRNA: 1.155 log2
